Laboratory results: patent US9611221B2, “Histone demethylase inhibitors” (CELGENE QUANTICEL RESEARCH, INC., priority 2012, dated 2017)

Tested on: KYSE-150 esophageal carcinoma cell line
Test: In vitro cell-based assay: cellular proliferation via BrdU incorporation ELISA
Design: species or system human
Settings: KYSE-150 cells, 168 hours compound incubation

- pIC50: 5.00 to 6.00
Substance: 3-{[(6-chloro-1-hydroxy-1,2,3,4- tetrahydronaphthalen-1- yl)methyl]amino}pyridine-4-carboxylic acid [Example 67]

pIC50: −log10 of the molar value.
